Data published in US20220369641A1, “MOLECULAR COMPLEXES” (priority 2019, published 2022).

Legend:
[1] = Thermodynamic (aqueous) solubility, 24 hours at 25° C., HPLC quantitation; format: physicochemical
Method: Aqueous solubility was determined by suspending sufficient amount of compound in 0.5 ml media for a maximum anticipated concentration of ca. 10 mg/ml. The suspension was equilibrated at 25° C., on a Heidolph plate shaker set to 750 rpm for 24 hours. The pH of the sample solutions was periodically checked and, if required, adjusted with 0.2M NaOH to ensure that the desired pH was maintained (±0.05) throughout. The pH of the saturated solution after this time was measured and the suspension filtered through a glass fibre C filter (particle retention 1.2 μm) and diluted appropriately.
Quantitation was by HPLC with reference to a standard solution of approximately 0.15 mg/ml in 1:1 MeCN/H2O. Different volumes of the standard, diluted and undiluted sample solutions were injected.
Different volumes of the standard, diluted and undiluted sample solutions were injected. The solubility was calculated using the peak areas determined by integration of the peak found at the same retention time as the principal peak in the standard injection.
Analysis was performed on an Agilent HP1100 series system equipped with a diode array detector and using ChemStation software.

[2] = Intrinsic dissolution rate (IDR), Sirius inForm, compressed discs; format: physicochemical; conditions: 37° C., pH 5.0 media, 1 hour, 6 mm disc
Method: IDR Method Ca. 40 mg material was compressed under 100 kg for 2 minutes to form non-disintegrating discs. The discs were then plugged with a bung so that only one surface was exposed to the media during analysis, and transferred to the dissolution apparatus (Sirius inForm). The volume of the assay was 40 ml and a stir speed of 225 rpm was used. Analysis was performed at 37° C. in pH 5.0 media for 1 hour with UV spectra collected every 30 seconds, using a 20 mm path length probe.

[3] = pH 4.0 media (42.4 ml 0.1 M acetic acid mixed with 7.6 ml 0.1 M sodium acetate)
[4] = Media DI Water, pH 7.8, final pH 5.24-5.42

Which results are given for “Pinoxaden:Dicamba (1:1) Molecular Complex [Example 5]”?
Thermodynamic solubility of pinoxaden component [1, 3]: 310 µg/mL; Thermodynamic solubility of second component [1, 3]: >5300 µg/mL

What does the source list for “Pinoxaden:MCPA (1:1) Molecular Complex [Example 4]”?
Thermodynamic solubility of pinoxaden component [1, 4]: 200 µg/mL; Thermodynamic solubility of second component [1, 4]: 110 µg/mL

Which “IDR of pinoxaden component” value [2] does the source give for “Pinoxaden:Fluroxypyr (1:1) Molecular Complex [Example 2]” here?
The value was 64.5 μg/min/cm^2.

And the “IDR of second component” value [2]?
The value was 104.5 μg/min/cm^2.

What about the “Thermodynamic solubility of pinoxaden component” value ([1]; Media DI Water, final pH 3.97-4.10) of the same substance?
The value was “ca. 0.01 mg/ml”.

And the “Thermodynamic solubility of second component” value ([1]; Media DI Water, final pH 4.04-4.10)?
The value was 250 µg/mL.
